This is an account of results in PMC7206614, “Photoswitchable ORG25543 Congener Enables Optical Control of Glycine Transporter 2” (ACS Chemical Neuroscience, 2020).

The chains behind the UniProt entries cited, without tags or fusion partners. Where a name states a change or a piece, a line headed by the entry shows the natural chain unless it says otherwise.
UniProt Q9Y345: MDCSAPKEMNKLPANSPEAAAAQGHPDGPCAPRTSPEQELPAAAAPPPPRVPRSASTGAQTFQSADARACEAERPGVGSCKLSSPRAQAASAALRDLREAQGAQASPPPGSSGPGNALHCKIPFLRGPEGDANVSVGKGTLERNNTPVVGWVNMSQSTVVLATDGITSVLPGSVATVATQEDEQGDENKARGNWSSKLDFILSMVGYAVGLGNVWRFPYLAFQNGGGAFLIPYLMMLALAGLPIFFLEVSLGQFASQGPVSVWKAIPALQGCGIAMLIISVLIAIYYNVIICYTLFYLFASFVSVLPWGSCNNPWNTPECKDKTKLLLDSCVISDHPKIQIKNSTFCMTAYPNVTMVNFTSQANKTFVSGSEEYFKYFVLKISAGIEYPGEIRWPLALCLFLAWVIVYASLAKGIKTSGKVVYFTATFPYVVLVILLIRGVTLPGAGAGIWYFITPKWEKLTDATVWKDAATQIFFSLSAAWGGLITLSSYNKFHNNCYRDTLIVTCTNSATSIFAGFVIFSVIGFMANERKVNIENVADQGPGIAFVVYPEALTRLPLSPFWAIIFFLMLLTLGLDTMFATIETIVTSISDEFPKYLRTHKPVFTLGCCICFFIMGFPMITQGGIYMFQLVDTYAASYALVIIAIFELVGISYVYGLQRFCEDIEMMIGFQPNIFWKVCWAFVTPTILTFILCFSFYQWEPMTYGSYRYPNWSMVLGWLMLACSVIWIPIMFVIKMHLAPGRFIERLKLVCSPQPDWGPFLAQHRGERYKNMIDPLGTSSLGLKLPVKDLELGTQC
UniProt P48067: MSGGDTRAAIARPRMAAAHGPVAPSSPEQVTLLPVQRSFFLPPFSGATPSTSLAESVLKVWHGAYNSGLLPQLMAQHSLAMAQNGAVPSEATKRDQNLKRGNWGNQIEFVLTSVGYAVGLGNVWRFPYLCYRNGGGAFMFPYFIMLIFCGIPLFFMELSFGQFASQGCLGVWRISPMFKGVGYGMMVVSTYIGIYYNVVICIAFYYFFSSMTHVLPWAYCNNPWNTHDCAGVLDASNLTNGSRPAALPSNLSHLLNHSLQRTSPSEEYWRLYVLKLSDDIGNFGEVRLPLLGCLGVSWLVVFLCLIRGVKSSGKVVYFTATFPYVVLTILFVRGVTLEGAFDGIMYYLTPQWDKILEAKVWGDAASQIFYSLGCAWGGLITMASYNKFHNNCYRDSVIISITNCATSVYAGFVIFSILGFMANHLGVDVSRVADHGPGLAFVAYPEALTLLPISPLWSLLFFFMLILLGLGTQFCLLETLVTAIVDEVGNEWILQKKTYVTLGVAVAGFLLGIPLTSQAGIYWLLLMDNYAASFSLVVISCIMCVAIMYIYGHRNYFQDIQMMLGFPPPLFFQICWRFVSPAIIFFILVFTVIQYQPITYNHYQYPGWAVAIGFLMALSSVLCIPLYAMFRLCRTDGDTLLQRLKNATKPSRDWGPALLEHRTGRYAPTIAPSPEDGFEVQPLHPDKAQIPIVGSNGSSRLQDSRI

Read-outs that look alike come from different tables or passages of the source.

One series addresses GlyT2 (Homo sapiens, UniProt Q9Y345). Description: Two-electrode voltage clamp of glycine transport currents in Xenopus laevis oocytes expressing GlyT2. The series is classed as cell-based. The following applies: for fold less potent than the nonazologized parent analogue 2: GlyT2 IC50 compared with 2; for Imax: mean ± SEM. (Two-electrode voltage clamp is typically applied to oocytes expressing channels or transporters.)

The target of the next series is GlyT1 (Homo sapiens, UniProt P48067). Description: Glycine transport currents in oocytes expressing GlyT1. Particulars: highest concentration of both isomers, 365 or 470 nm.
Series [1] in a line: Thermal relaxation of (Z)-3 in the dark monitored by UV/vis spectroscopy. Particulars: PBS pH 7.4, preirradiated with 365 nm light, left in the dark, spectra every 12 h.
Where [2] appears, read: glycine Imax with 1 μM azo-compound 3, normalized to Imax of glycine transport in the absence of inhibitor.
Where [3] appears, read: glycine Imax with 3 μM azo-compound 3, normalized to Imax of glycine transport in the absence of inhibitor.
Setting [4] is: glycine Imax with 10 μM azo-compound 3, normalized to Imax of glycine transport in the absence of inhibitor.
[5] abbreviates: glycine Imax with 30 μM azo-compound 3, normalized to Imax of glycine transport in the absence of inhibitor.
The mark [6] stands for this setting: read-out: average IC50, average over the glycine concentrations of Table 1.
The mark [7] stands for this setting: read-out: azo-compound 3 IC50, 10 μM glycine, 3 irradiated at 365 nm ((Z)-3) or 470 nm ((E)-3), mean (95% confidence interval).
Where [8] appears, read: read-out: azo-compound 3 IC50, 30 μM glycine, 3 irradiated at 365 nm ((Z)-3) or 470 nm ((E)-3), mean (95% confidence interval).
The mark [9] stands for this setting: read-out: azo-compound 3 IC50, 100 μM glycine, 3 irradiated at 365 nm ((Z)-3) or 470 nm ((E)-3), mean (95% confidence interval).
[10] abbreviates: read-out: azo-compound 3 IC50, 300 μM glycine, 3 irradiated at 365 nm ((Z)-3) or 470 nm ((E)-3), mean (95% confidence interval).
[11] abbreviates: read-out: azo-compound 3 IC50, 1000 μM glycine, 3 irradiated at 365 nm ((Z)-3) or 470 nm ((E)-3), mean (95% confidence interval).

`COc1cc(C(=O)NCC2(N(C)C)CCCCC2)ccc1/N=N/c1ccccc1`: the “fold less potent than the nonazologized parent analogue 2” value on GlyT2 is more than 110 fold. Further, the “fold more potent, trans versus cis conformation” value at GlyT2 (GlyT2 inhibition) is on record as 2 fold. Also, the Imax at GlyT2 (setting [2]) is listed as 0.872 ± 0.029; at GlyT2 (setting [3]), 0.732 ± 0.033; at GlyT2 (setting [4]), 0.495 ± 0.036; at GlyT2 (setting [5]), 0.332 ± 0.043. The IC50 (as a rule, the concentration at which inhibition is half-maximal) at GlyT2 (setting [6]) was 5.36 µM; at GlyT2 (setting [7]), 4.84 µM; at GlyT2 (setting [8]) it was 5.77 µM; at GlyT2 (setting [9]), 4.49 µM; at GlyT2 (setting [10]), 7.12 µM; on GlyT2 (setting [11]), 4.6 µM.
For `COc1cc(C(=O)NCC2(N(C)C)CCCCC2)ccc1N=Nc1ccccc1`, the “activity at GlyT1” value at GlyT1 is reported as “no activity”. For the same molecule, at GlyT2 (10 μM 3, 300 μM glycine, glycine reapplied after 5 min wash, both isomers), the “reversibility of inhibition after washing” value was “fully reversed after 5 min”. In addition, at GlyT2 (glycine concentration response curves with increasing 3, Eadie-Hofstee plots, 365 and 470 nm), the “mechanism of glycine transport inhibition” value is recorded as “noncompetitive inhibitor”.
Regarding `COc1cc(C(=O)NCC2(N(C)C)CCCCC2)ccc1/N=N\c1ccccc1`, at GlyT2, the “fold less potent than the nonazologized parent analogue 2” value is more than 110 fold. Further, the Imax on GlyT2 (setting [2]) is listed as 0.916 ± 0.022; on GlyT2 (setting [3]) it was 0.835 ± 0.033; on GlyT2 (setting [4]) it was 0.642 ± 0.031; at GlyT2 (setting [5]), 0.527 ± 0.063. In addition, the half-inhibitory concentration (IC50) at GlyT2 (setting [6]) was determined as 9.94 µM; at GlyT2 (setting [7]), 11.1 µM; on GlyT2 (setting [8]), 12.3 µM; on GlyT2 (setting [9]), 10.6 µM; on GlyT2 (setting [10]), 9.25 µM; at GlyT2 (setting [11]), 6.44 µM. Also, the “time to complete thermal relaxation of (Z)-3 to (E)-3” value in series [1] was determined as 84 h.
